Earlier results as cited in US5637309A, “Physiologically active substance-prolonged releasing-type pharmaceutical preparation” (Shiseido Company, Ltd., priority 1993, dated 1997).

System: contracted blood vessels
Settings: subarachnoid hemorrhage rabbit models, aseptic solution into cisterna magna; cited from earlier work

## calcitonin gene-related peptide (ACDTATCVTHRLAGLLSRSGGVVKNNFVPTNVGSKAF; Calcitonin gene-related peptide 1; UniProt P06881 83-119, looked up) [CGRP, human alpha CGRP: Bachem Feinchemikalien, AG, Budendorf, Switzerland]
  Dilation effects on the contracted blood vessels: dilation effects on the contracted blood vessels are obtained
